Earlier results on one compound are cited in patent publication US20160311911A1, “METHODS FOR TREATING ALLERGIC AIRWAY INFLAMMATION” (priority 2015, published 2016).

Sequences of proteins named here, by UniProt entry; tags and fusion partners are left off.
UniProt P25025, whole entry: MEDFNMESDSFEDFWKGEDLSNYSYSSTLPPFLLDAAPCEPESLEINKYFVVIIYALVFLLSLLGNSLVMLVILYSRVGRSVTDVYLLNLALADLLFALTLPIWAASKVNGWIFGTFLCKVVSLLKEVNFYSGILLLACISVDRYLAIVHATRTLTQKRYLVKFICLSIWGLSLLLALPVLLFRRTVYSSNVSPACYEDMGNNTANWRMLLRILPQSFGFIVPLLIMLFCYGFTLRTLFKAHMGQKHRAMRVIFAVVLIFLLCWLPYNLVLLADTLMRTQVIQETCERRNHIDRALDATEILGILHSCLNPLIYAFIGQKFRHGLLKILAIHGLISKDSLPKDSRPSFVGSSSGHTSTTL

In the data set the target is CXCR2 (Homo sapiens, UniProt P25025). Particulars: human subjects with severe asthma; reference 48; cited from earlier work.

With `CC[C@@H](Nc1c(Nc2cccc(C(=O)N(C)C)c2O)c(=O)c1=O)c1ccc(C)o1` [SCH 527123], the asthma exacerbations entry is on record as “reduced”.
